## Yeast mating assay 2: variants of the scFv Ab-91

Source: Engelhart et al. 2022 (doi:10.1038/s41597-022-01779-4), MIT Lincoln Laboratory and A-Alpha Bio; data file from the FLAb repository.

Target peptide (SARS-CoV-2 spike, HR2 region): PDVDLGDISGINAS

Parent: Ab-91, a human scFv built as VL, a (GGGGS)3 linker, VH. Only the CDRs of the heavy chain vary.
VL: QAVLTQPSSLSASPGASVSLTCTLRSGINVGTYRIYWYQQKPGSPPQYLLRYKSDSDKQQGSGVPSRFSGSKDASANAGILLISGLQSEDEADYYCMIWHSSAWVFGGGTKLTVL
VH: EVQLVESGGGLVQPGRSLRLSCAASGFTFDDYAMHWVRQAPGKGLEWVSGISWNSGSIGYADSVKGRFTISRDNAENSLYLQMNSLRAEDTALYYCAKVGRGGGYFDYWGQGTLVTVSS

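AAYL51 was designed without a model: most single CDR substitutions and a random sample of double and triple ones. AlphaSeq pools MATa yeast showing the antibodies with MATalpha yeast showing the peptide. Pairs that bind mate more often; barcode pairs of the diploids are counted by sequencing. Read counts were normalised to the haploid input and turned into Kd by a linear fit to BCL2-family pairs of known affinity, for each replicate. Each pool was mated in three replicate cultures.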

Substitutions are numbered in sequence along the VH above, starting at 1 (not Kabat).
Every variant below is changed at G59 of the VH (sequential numbering).
The Kd shown is the geometric mean over detected replicates; a lower Kd is a better binder.
"no signal" means that the variant was in the library but no mating with the target was seen in any replicate; the authors take this as a sign of poor binding, and no number exists.
Three control strains display no target. For library AAYL51, 21% of the pairings with them gave a signal, with a median of 34 µM and one signal in twenty below 1.8 µM, so weak values seen in few replicates may be background.

Variant F27D G59S S63L showed 21 µM (1 of 3 replicates). For S52D G59W R101S, the assay gave no signal (0 of 3 replicates). Variant G59Y R101A gave no signal (0 of 3 replicates). For S57D G59H G104F, the assay gave 51 µM (1 of 3 replicates). For F27K G59Y Y108T, the assay gave no signal (0 of 3 replicates). Variant W53G G59I K65Q showed no signal (0 of 3 replicates). Variant S55N G59D V64E showed 62 µM (2 of 3 replicates).

Variant G59K D62E S63K gave no signal (0 of 3 replicates). With S52A G59Q S63P the result was 140 µM (2 of 3 replicates). With W53P G59D K65D the result was 48 µM (3 of 3 replicates). With N54D G59E Y60A the result was no signal (0 of 3 replicates). Variant G59F G103W Y108T gave 56 µM (1 of 3 replicates). For A33G H35I G59H, the assay gave 17 µM (1 of 3 replicates). For G59Y S63K F106H, the assay gave no signal (0 of 3 replicates).

With G59S V99Q D107Y the result was no signal (0 of 3 replicates). For M34N G59H S63W, the assay gave no signal (0 of 3 replicates). For W53K S55V G59M, the assay gave 290 µM (3 of 3 replicates). For Y32A G59H G104D, the assay gave no signal (0 of 3 replicates). Variant D30H G59W Y105W gave 10 µM (1 of 3 replicates). For D31S G59C S63F, the assay gave 29 µM (1 of 3 replicates). Variant H35D G59C G103S gave no signal (0 of 3 replicates).

For G59I Y60H V64G, the assay gave no signal (0 of 3 replicates). With M34F G59Y K65G the result was 5.6 µM (1 of 3 replicates). With G59F R101Q Y108N the result was 220 µM (3 of 3 replicates). With G59I D62K V99T the result was no signal (0 of 3 replicates). With F27L F29E G59K the result was 49 µM (1 of 3 replicates). With I58A G59L the result was 4.4 µM (1 of 3 replicates). Variant S57P G59H V99N gave 150 µM (2 of 3 replicates).

Variant M34N G59L G102V gave no signal (0 of 3 replicates). Variant M34K H35A G59D gave no signal (0 of 3 replicates). For W53G G59V Y60T, the assay gave no signal (0 of 3 replicates). Variant G59W A61C gave no signal (0 of 3 replicates). Variant W53N G59A V64M gave no signal (0 of 3 replicates).

Excerpt, the first 4 entries:

The variant F27D G59S S63L showed 21 µM (1 of 3 replicates).
The variant S52D G59W R101S showed no signal (0 of 3 replicates).
The variant G59Y R101A showed no signal (0 of 3 replicates).
The variant S57D G59H G104F showed 51 µM (1 of 3 replicates).